SMILES strings stand for the structures. The list shows a part of the results, in another mix than the full data. Some results for these compounds are left out of this collection, so the calls shown say nothing about other tests. Calls of active or inactive are those of the source. No stated cut-off is given here; in the data, active means inhibition above about 45%; inactive means the rest.

Protein sequences, listed by entry. Tags and fused reporters are not part of them. Residues count along the entry.
UniProt P07711, 114-288 limits assumed: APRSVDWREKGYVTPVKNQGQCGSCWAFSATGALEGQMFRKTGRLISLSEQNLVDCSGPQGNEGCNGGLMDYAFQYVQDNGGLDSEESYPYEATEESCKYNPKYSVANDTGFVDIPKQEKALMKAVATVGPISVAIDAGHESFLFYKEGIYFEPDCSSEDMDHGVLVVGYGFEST
UniProt P07711, 292-333 limits assumed: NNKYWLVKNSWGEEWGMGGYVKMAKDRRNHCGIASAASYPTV

By inhibition is commonly meant the relative decrease from the control value, in per cent.

This experiment deals with Procathepsin L (Homo sapiens) (UniProt P07711). Nature of the experiment: inhibitors of human cathepsin L, biochemical (AID 460).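 Further: 0% = enzyme with no compound and 100% = no enzyme blank.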 To be noted: purified cathepsin L, fluorogenic substrate, fluorescence; stronger effect = higher value;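 tested at 10 µM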.
`O=C(OC1CN2CCC1CC2)C(CO)(c1ccccc1)c1ccccc1` (configuration not stated): the inhibition is inactive: 0.86%.

With `CN(C)c1cccc(C(=O)NCC2(N(C)C)CCCCC2)c1`, the inhibition is inactive: 8.82%.

Source of the values: PubChem BioAssay AID460 (PCMD, 2006).
